{"source": "patent US10464925B2", "key": {"FKBP12 [1]": {"molecular_target": "T1, FKBP12 (Homo sapiens, UniProt P62942)", "details": "for reduction of FKBP12: MV4-11, 0.01 μM, 18 h"}, "[2]": {"molecular_target": "fusion of mutant FKBP12 to nanoluciferase (Homo sapiens, UniProt P62942+Q96SW2, F37V)", "test": "FKBP Dual Luciferase Assay, wild-type 293FT, mutant FKBP12 (36V)", "details": "read-out: Max Degradation (dual luciferase, %) FKBP 36V"}, "FKBP12 (36V)": {"molecular_target": "FKBP12 (36V) (Homo sapiens, UniProt P62942, F37V)", "test": "FKBP12 (36V) Ligand-Displacement AlphaScreen Assay"}, "FKBP12 (WT)": {"molecular_target": "FKBP12 (WT) (Homo sapiens, UniProt P62942)", "test": "FKBP12 (WT) Ligand-Displacement AlphaScreen Assay"}, "[3]": {"molecular_target": "fusion of FKBP12 to nanoluciferase (Homo sapiens, UniProt P62942+Q96SW2)", "test": "FKBP Dual Luciferase Assay, wild-type 293FT, FKBP12", "details": "read-out: Max Degradation (dual luciferase, %) FKBP"}, "CRBN": {"molecular_target": "T2, CRBN (Homo sapiens, UniProt Q96SW2)", "T2 construct": "endogenous in cells", "test": "Intracellular CRBN Engagement Assay (dFKBP7 rescue)", "format": "cell-based"}, "CRBN-DDB1": {"molecular_target": "CRBN-DDB1 (Homo sapiens, UniProt Q96SW2)", "test": "CRBN-DDB1 Ligand-Displacement AlphaScreen Assay (thalidomide competition);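 note: streptavidin donor and nickel chelate acceptor bead proximity signal after 30 min incubation, normalized with no-protein background as 0% and DMSO wells as 100% activity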", "details": "biotin-thalidomide competition"}, "BRD4": {"molecular_target": "BRD4 (Homo sapiens, UniProt O60885)", "test": "BRD4 Cell Western (BRD4 levels in 293T cells, LiCOR)", "details": "read-out: BRD4 DC50 (nM) Cell Western, 4 hours"}, "MOLT4": {"test_system": "MOLT4", "test": "Cell viability, ATPlite 48 hours, MOLT4", "details": "Homo sapiens, MOLT-4, read-out: IC50 (nM) MOLT4"}, "[4]": {"molecular_target": "BRD4 adjoined to nanoluciferase (Nluc) (Homo sapiens, UniProt O60885+Q96SW2)", "test": "BRD4 Dual Luciferase Assay;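 note: transduced reporter cells exposed to compound for 4 h, then Nluc and Fluc luminescence read, each normalized to DMSO controls and expressed as Nluc/Fluc ratio per well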"}, "FKBP12 [5]": {"molecular_target": "T1, FKBP12", "details": "18 h"}, "[6]": {"details": "competition with 80 nM dFKBP7, 3 hours, read-out: FKBP7 rescue (EC50)"}}, "note": "Where two headings read alike, the source gives them in different places.", "data": [{"smiles": "CCC(C)(C)C(=O)C(=O)N1CCCC[C@H]1C(=O)O[C@H](CCc1ccc(OC)c(OC)c1)c1cccc(NC(=O)CCC(=O)NCCCOCCOCCOCCCNC(=O)COc2cccc3c2C(=O)N(C2CCC(=O)NC2=O)C3=O)c1", "note": "(stereo partly drawn)", "values": [{"measurement": "reduction of FKBP12", "setting": "FKBP12 [1]", "result": 50, "unit": "%"}, {"measurement": "Dmax", "setting": "[2]", "result": 43, "unit": "%"}, {"measurement": "IC50", "setting": "FKBP12 (36V)", "result": 174, "unit": "nM"}, {"measurement": "IC50", "setting": "FKBP12 (WT)", "result": 218, "unit": "nM"}, {"measurement": "Dmax", "setting": "[3]", "result": 53, "unit": "%"}]}, {"smiles": "Cc1sc2c(c1C)C(c1ccc(Cl)cc1)=N[C@@H](CC(=O)NCCNC(=O)COc1cccc3c1C(=O)N(C1CCC(=O)NC1=O)C3=O)c1nnc(C)n1-2", "note": "(stereo partly drawn) [dBET3]", "values": [{"measurement": "EC50", "setting": "CRBN; [6]", "result": 47500, "unit": "nM"}]}, {"smiles": "Cc1sc2c(c1C)C(c1ccc(Cl)cc1)=N[C@@H](CC(=O)NCCCCCCNC(=O)COc1cccc3c1C(=O)N(C1CCC(=O)NC1=O)C3=O)c1nnc(C)n1-2", "note": "(stereo partly drawn) [dBET5]", "values": [{"measurement": "EC50", "setting": "CRBN; [6]", "result": 27000, "unit": "nM"}]}, {"smiles": "CC[C@@H]1C(=O)N(C)c2cnc(Nc3ccc(C(=O)NCCCCCCNC(=O)COc4cccc5c4C(=O)N(C4CCC(=O)NC4=O)C5=O)cc3OC)nc2N1C1CCCC1", "note": "(stereo partly drawn) [dBET7]", "values": [{"measurement": "IC50", "setting": "CRBN-DDB1", "result": 417, "unit": "nM"}, {"measurement": "EC50", "setting": "CRBN", "result": 217000, "unit": "nM"}, {"measurement": "DC50", "setting": "BRD4", "result": 7.1, "unit": "nM"}]}, {"smiles": "Cc1sc2c(c1C)C(c1ccc(Cl)cc1)=N[C@@H](CC(=O)NCCCOCCOCCOCCCNC(=O)COc1cccc3c1C(=O)N(C1CCC(=O)NC1=O)C3=O)c1nnc(C)n1-2", "note": "(stereo partly drawn) [dBET9]", "values": [{"measurement": "IC50", "setting": "MOLT4", "result": 1500, "unit": "nM"}]}, {"smiles": "Cc1sc2c(c1C)C(c1ccc(Cl)cc1)=N[C@@H](CC(=O)NCCCCCCNC(=O)c1ccc3c(c1)C(=O)N(C1CCC(=O)NC1=O)C3=O)c1nnc(C)n1-2", "note": "(stereo partly drawn) [dBET15]", "values": [{"measurement": "EC50", "setting": "CRBN", "result": 48200, "unit": "nM"}]}, {"smiles": "COC(=O)C[C@@H]1N=C(c2ccc(Cl)cc2)c2c(sc(C(=O)NCCCCNC(=O)COc3cccc4c3C(=O)N(C3CCC(=O)NC3=O)C4=O)c2C)-n2c(C)nnc21", "note": "(stereo partly drawn) [dBET22]", "values": [{"measurement": "Dmax", "setting": "[4]; read-out: BRD4 max degradation(%) Dual Luciferase", "result": 73, "unit": "%"}, {"measurement": "Emax", "setting": "[4]; read-out: BRD4− Emax (percent remaining)", "result": 26.3, "unit": "%"}, {"measurement": "Dmax", "setting": "[4]; read-out: max degradation (dual luc)", "result": 72.7, "unit": "%"}]}, {"smiles": "CCC(C)(C)C(=O)C(=O)N1CCCC[C@H]1C(=O)O[C@H](CCc1ccc(OC)c(OC)c1)c1cccc(NC(=O)CCC(=O)NCCCCNC(=O)COc2cccc3c2C(=O)N(C2CCC(=O)NC2=O)C3=O)c1", "note": "(stereo partly drawn) [dFKBP-1]", "values": [{"measurement": "improvement in potency as compared to conjugated PROTAC ligands", "setting": "FKBP12 [1]", "result": 1000, "unit": "fold"}, {"measurement": "reduction of FKBP12", "setting": "FKBP12 [1]", "result": 50, "unit": "%"}, {"measurement": "Dmax", "setting": "[2]", "result": 35, "unit": "%"}, {"measurement": "degradation of FKBP12", "setting": "FKBP12 [5]; 293FT-CRBN−/− cells", "result": "unaffected"}, {"measurement": "degradation of FKBP12", "setting": "FKBP12 [5]; 293FT-WT cells", "result": "potent, dose-dependent degradation of FKBP12"}, {"measurement": "Dmax", "setting": "[3]", "result": 44, "unit": "%"}]}]}
